In ChEMBL document CHEMBL5375987, “Structural Fusion of Natural and Synthetic Ligand Features Boosts RXR Agonist Potency” (J Med Chem, 2023):
The source made the active and inactive calls.

By UniProt entry, the sequences of proteins in these tests, tags left out. Where a name states a change or a piece, a line headed by the entry shows the natural chain unless it says otherwise.
UniProt Q9Y466: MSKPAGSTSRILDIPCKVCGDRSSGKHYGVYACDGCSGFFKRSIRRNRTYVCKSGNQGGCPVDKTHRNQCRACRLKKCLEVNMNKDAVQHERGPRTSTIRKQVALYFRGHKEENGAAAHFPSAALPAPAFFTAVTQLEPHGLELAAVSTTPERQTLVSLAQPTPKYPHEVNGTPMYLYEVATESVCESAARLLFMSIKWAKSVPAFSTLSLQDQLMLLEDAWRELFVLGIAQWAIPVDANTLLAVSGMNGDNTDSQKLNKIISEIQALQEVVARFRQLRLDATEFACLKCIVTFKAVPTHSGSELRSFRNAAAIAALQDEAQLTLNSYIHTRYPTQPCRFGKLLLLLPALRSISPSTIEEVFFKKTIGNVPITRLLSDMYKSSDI
UniProt P10276, whole entry: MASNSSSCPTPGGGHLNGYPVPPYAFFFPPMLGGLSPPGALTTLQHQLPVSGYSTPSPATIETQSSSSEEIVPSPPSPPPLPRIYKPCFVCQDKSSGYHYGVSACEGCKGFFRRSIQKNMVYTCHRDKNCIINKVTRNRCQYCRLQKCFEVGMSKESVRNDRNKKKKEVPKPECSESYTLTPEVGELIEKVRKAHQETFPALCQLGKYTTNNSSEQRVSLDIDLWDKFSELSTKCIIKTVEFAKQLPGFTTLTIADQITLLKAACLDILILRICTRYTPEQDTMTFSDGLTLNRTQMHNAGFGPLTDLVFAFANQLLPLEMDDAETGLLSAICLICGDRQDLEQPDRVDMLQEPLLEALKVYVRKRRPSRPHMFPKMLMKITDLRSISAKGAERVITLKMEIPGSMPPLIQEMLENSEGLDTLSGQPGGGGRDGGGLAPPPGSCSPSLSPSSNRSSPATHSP

Key:
[1] = target: Nuclear receptor subfamily 2 group E member 1 (Homo sapiens) (UniProt Q9Y466); assay: Agonist activity at NR2E1 (unknown origin) at 1 uM
[2] = target: Retinoic acid receptor alpha (Homo sapiens) (UniProt P10276); assay: Inverse agonist activity at NR1B1 (unknown origin) at 1 uM
[3] = target: T1, Nuclear receptor ROR-beta (Homo sapiens) (UniProt Q92753); assay: Inverse agonist activity at NR1F2 (unknown origin) at 1 uM
T1 sequence (whole entry): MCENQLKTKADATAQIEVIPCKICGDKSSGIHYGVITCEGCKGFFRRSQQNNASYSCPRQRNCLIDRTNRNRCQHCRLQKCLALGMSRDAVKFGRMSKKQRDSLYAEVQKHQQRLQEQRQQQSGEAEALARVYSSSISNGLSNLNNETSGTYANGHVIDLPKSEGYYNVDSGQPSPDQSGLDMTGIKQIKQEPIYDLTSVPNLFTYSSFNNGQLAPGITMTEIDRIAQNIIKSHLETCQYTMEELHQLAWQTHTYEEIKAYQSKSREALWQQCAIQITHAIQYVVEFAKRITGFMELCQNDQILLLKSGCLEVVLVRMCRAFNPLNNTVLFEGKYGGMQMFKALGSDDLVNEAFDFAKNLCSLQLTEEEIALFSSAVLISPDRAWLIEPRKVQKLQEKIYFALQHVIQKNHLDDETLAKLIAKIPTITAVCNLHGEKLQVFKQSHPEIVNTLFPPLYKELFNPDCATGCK

[4] = target: T2, Nuclear receptor subfamily 2 group C member 1 (Homo sapiens) (UniProt P13056); assay: Antagonist activity at NR2C1 (unknown origin) at 1 uM
T2 sequence (whole entry): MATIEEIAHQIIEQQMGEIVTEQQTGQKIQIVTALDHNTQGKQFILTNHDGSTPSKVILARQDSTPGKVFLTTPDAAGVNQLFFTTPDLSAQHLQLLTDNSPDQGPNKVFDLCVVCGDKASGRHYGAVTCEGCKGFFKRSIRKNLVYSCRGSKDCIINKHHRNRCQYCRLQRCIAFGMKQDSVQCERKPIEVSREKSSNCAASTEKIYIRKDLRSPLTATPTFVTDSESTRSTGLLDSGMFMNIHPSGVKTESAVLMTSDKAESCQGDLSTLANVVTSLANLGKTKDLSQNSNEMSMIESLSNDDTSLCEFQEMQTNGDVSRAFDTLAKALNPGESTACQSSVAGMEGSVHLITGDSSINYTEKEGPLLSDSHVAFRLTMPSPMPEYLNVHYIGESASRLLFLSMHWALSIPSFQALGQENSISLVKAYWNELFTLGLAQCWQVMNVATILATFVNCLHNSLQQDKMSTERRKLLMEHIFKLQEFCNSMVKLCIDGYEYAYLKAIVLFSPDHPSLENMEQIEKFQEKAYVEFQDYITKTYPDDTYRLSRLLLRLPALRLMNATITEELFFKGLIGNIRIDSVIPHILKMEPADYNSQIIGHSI

Measured: Activity

O=C(O)[C@@H]1C[C@H]1c1nc(-c2ccccc2)c(-c2cc(C(F)(F)F)cc(C(F)(F)F)c2)o1 (racemic)
inactive: all assays above
